Data: paper PMC4515084 (Chemmedchem, 2015)

Experiment: Pharmacokinetic studies in rats
Conditions: rodents / rats

Compound: CC1=C(C#N)[C@@H](c2ccc(C#N)cc2S(C)(=O)=O)N(C)C(=O)N1c1cccc(C(F)(F)F)c1 [Compound 29, (4S)-4-[4-Cyano-2-(methylsulfonyl)phenyl]-3,6-dimethyl-2-oxo-1-[3-(trifluoromethyl)phenyl]-1,2,3,4-tetrahydropyrimidine-5-carbonitrile]
- clearance: low clearance
